Values quoted from earlier work, collected in publication PMC2570394 (Diabetes, 2008).

Test system: hepatic CB1 receptors
Details: mice, 10 mg/kg, 3 weeks; cited from earlier work

**Q.** For `Cc1c(C(=O)NN2CCCCC2)nn(-c2ccc(Cl)cc2Cl)c1-c1ccc(Cl)cc1` [SR141716, Rimonabant], which alcohol-induced steatosis is on record?
**A.** attenuated
